# What was measured:
# AAV producer cells [1] = test: Experiment 3: AAV titer in cell culture solution continuously collected every 24 hours for 7 days; settings: 30 × 10^6 cells/mL or more kept for 7 days, doxycycline 5 µg/mL, CI-994 7.5 µmol/L, 72 hours
# Description: 280 mL of a BalanCD HEK293 medium (FUJIFILM Irvine Scientific, 551-34231) was seeded with AAV producer cells suspended at 0.5 × 10^6 cells/mL in a 0.5 L reactor (Biott Corporation). The perfusion culture was performed using a BalanCD HEK293 medium (FUJIFILM Irvine Scientific, 551-34231) and a BalanCD HEK293 Feed (FUJIFILM Irvine Scientific, 550-34245) as a perfusion medium.
# The HEK cell culture solution, which had been cultured for 72 hours after the gene transfer under the conditions of 37°C and 8% CO2, was collected, and the cells were disrupted by freezing and thawing at -80°C. Then, the supernatant was collected by centrifugation at 13,800 ×g, 2 mmol/L (final concentration) MgCl2, and 25 U/mL Benzonase was added thereto, and a reaction was carried out at 37°C for 2 hours to digest gDNA (genomic DNA) and residual plasmid. […] Measurement was performed using a droplet reader, and the AAV genomic titer (vg/mL) was calculated.
# As in Experiment 2, the AAV producer cells were cultured at 30 × 10^6 cells/mL or more by perfusion culture in a reactor, and the cells were collected into a flask to examine the production of AAV. […] After the drug addition, the cells were recovered after the treatment for 72 hours, and the AAV titer was measured.
# AAV producer cells [2] = test: Experiment 4: Full rate of purified AAV by anion exchange high performance liquid chromatography
# Description: The AAV was extracted and purified from the sample on Day 7 in Experiment 3 using an AAVpro Purification Kit (Takara Bio Inc., 6675). For the sample solution after the purification, the area value of each of the peaks of the Empty and Full particles of AAV was measured using high performance liquid chromatography, and the Full rate (the ratio of the amount of capsids containing the full-length gene to the total amount of capsids) was calculated. An anion exchange column was used as a separation column, and a fluorescence detector (excitation: 280 nm, detection: 348 nm) was used for detection.
# AAV producer cells [3] = test: Experiment 2: AAV titer by ddPCR in high-density cell culture solution after perfusion culture; settings: 30 × 10^6 cells/mL, doxycycline 5 µg/mL, CI-994 conc: 7.5 µM, 72 hours; untreated sample 1.1 × 10^12 vg/mL
# Text: A plasmid (SEQ ID NO: 1 and SEQ ID NO: 2) was introduced into HEK293 cells (Thermo Fisher Scientific, A49784) adapted to growth in suspension culture, and a stable expression cell line (AAV producer cell) in which the sequence 1 (including a reverse tetracycline-controlled transactivator (rtTA) gene, a Rep gene, a Cap gene, an E2 gene, an E4 gene, and a GFP gene (as a GOI) sandwiched between ITR sequences, in which the Rep gene, the Cap gene, the E2 gene, and the E4 gene are under the control of a promoter having a tetracycline response element (TRE) sequence) was incorporated into the chromosome of the cell was cultured in a BalanCD HEK293 medium (FUJIFILM Irvine Scientific, 551-34231). […]
# The HEK cell culture solution, which had been cultured for 72 hours after the gene transfer under the conditions of 37°C and 8% CO2, was collected, and the cells were disrupted by freezing and thawing at -80°C. […] Measurement was performed using a droplet reader, and the AAV genomic titer (vg/mL) was calculated.
# The AAV producer cells were cultured at 30 × 10^6 cells/mL by perfusion culture in a reactor, and then 24 mL of the culture solution was transferred to a 125 mL flask. […] After the drug addition, the cells were recovered after the treatment for 72 hours, and the AAV titer was measured.
smiles,measurement,setting,value
CC(=O)Nc1ccc(C(=O)Nc2ccccc2N)cc1,AAV titer compared with the CI-994-untreated sample,AAV producer cells [1],higher titer
same,effect on the Full rate,"AAV producer cells [2]; Day 7 sample of Experiment 3, CI-994-treated versus untreated",improvement effect on the Full rate
same,Full rate (%),"AAV producer cells [2]; Day 7 sample of Experiment 3, ratio of capsids containing the full-length gene to total capsids, without CI-994: 23.8",30.8%
same,AAV titer,AAV producer cells [3],2.2 × 10^12 vg/mL
